{"sequences": {"note": "Protein sequences, listed by entry. Tags and fused reporters are not part of them. Residues count along the entry.", "UniProt O00408, 2-941": "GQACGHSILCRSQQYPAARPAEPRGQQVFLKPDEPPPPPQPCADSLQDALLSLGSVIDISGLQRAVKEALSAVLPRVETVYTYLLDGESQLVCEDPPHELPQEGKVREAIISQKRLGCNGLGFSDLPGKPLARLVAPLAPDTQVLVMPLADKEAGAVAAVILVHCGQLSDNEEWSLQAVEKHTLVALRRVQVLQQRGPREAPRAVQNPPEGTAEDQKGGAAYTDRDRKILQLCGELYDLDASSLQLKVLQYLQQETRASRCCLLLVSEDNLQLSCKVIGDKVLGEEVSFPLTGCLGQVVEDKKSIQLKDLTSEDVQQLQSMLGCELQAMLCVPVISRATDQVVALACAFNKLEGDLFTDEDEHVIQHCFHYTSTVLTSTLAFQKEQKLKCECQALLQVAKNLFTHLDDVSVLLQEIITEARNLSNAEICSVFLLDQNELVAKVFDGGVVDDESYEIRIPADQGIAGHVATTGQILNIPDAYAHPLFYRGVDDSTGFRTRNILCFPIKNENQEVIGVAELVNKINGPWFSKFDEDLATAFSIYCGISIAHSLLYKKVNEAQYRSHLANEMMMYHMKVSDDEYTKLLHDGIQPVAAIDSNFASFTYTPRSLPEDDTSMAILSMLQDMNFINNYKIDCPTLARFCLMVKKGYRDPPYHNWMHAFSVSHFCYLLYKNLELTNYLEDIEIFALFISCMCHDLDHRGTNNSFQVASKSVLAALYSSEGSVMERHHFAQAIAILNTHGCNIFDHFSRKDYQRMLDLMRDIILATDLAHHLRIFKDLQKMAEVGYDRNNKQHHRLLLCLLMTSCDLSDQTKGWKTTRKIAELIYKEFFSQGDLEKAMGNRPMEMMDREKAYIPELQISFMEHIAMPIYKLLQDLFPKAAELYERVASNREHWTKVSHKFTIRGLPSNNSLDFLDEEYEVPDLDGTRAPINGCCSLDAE"}, "source": "patent US11186582B2", "about": "“Substituted [1,2,4]triazolo[1,5-a]pyrimidin-7-yl compounds as PDE2 inhibitors” (DART NEUROSCIENCE (CAYMAN) LTD., priority 2014, dated 2021)", "data": [{"molecular_target": "FLAG-tagged PDE2A1 (amino acids 2-941) (Homo sapiens (Human), UniProt O00408)", "assay": "IMAP TR-FRET PDE2A phosphodiesterase enzymatic assay", "details": "not given", "units": {"IC50": "µM"}, "values": [{"molecule": "Cc1cc(C2CCCN(Cc3cc(F)cc(F)c3)C2)n2ncnc2n1", "note": "(stereo not drawn) [Example 185, 1-[(3,5-Difluorophenyl)methyl]-3-{5-methyl-[1,2,4]triazolo[1,5-a]pyrimidin-7-yl}piperidine]", "IC50": "0.1 to 1"}, {"molecule": "Cc1cc(C2CCCN(Cc3cc(F)c(F)c(F)c3)C2)n2ncnc2n1", "note": "(stereo not drawn) [Example 187, 3-{5-Methyl-[1,2,4]triazolo[1,5-a]pyrimidin-7-yl}-1-[(3,4,5-trifluorophenyl)methyl]piperidine]", "IC50": "0.1 to 1"}, {"molecule": "Cc1cc(C2CCCN(Cc3ccc(OC(F)(F)F)c(F)c3)C2)n2ncnc2n1", "note": "(stereo not drawn) [Example 188, 1-{[3-Fluoro-4-(trifluoromethoxy)phenyl]methyl}-3-{5-methyl-[1,2,4]triazolo[1,5-a]pyrimidin-7-yl}piperidine]", "IC50": "0.1 to 1"}, {"molecule": "Cc1cc(C2CCCN(Cc3ccc(-n4cccn4)c(F)c3)C2)n2ncnc2n1", "note": "(stereo not drawn) [Example 189, 1-{[3-Fluoro-4-(1H-pyrazol-1-yl)phenyl]methyl}-3-{5-methyl-[1,2,4]triazolo[1,5-a]pyrimidin-7-yl}piperidine]", "IC50": "0.1 to 1"}, {"molecule": "Cc1cc([C@H]2CCCN(Cc3cc(F)c(F)c(F)c3)C2)n2ncnc2n1", "note": "[Example 191, (3S)-3-{5-Methyl-[1,2,4]triazolo[1,5-a]pyrimidin-7-yl}-1-[(3,4,5-trifluorophenyl)methyl]piperidine]", "IC50": "0.1 to 1"}, {"molecule": "Cc1cc(C2CCCN(Cc3cncc(F)c3)C2)n2ncnc2n1", "note": "(stereo not drawn) [Example 192, 3-Fluoro-5-[(3-{5-methyl-[1,2,4]triazolo[1,5-a]pyrimidin-7-yl}piperidin-1-yl)methyl]pyridine]", "IC50": "1 to 10"}, {"molecule": "Cc1cc(C2CCCN(Cc3cnc(Br)s3)C2)n2ncnc2n1", "note": "(stereo not drawn) [Example 193, 1-[(2-Bromo-1,3-thiazol-5-yl)methyl]-3-{5-methyl-[1,2,4]triazolo[1,5-a]pyrimidin-7-yl}piperidine]", "IC50": "0.1 to 1"}, {"molecule": "Cc1cc(C2CCCN(Cc3cnc(C)s3)C2)n2ncnc2n1", "note": "(stereo not drawn) [Example 194, 1-[(2-Methyl-1,3-thiazol-5-yl)methyl]-3-{5-methyl-[1,2,4]triazolo[1,5-a]pyrimidin-7-yl}piperidine]", "IC50": "1 to 10"}, {"molecule": "Cc1cc(C2CCCN(Cc3cnc(N4CCOCC4)s3)C2)n2ncnc2n1", "note": "(stereo not drawn) [Example 198, 4-{5-[(3-{5-Methyl-[1,2,4]triazolo[1,5-a]pyrimidin-7-yl}piperidin-1-yl)methyl]-1,3-thiazol-2-yl}morpholine]", "IC50": "1 to 10"}, {"molecule": "Cc1cc(C2CCCN(Cc3csc(Br)n3)C2)n2ncnc2n1", "note": "(stereo not drawn) [Example 199, 1-[(2-Bromo-1,3-thiazol-4-yl)methyl]-3-{5-methyl-[1,2,4]triazolo[1,5-a]pyrimidin-7-yl}piperidine]", "IC50": "1 to 10"}]}, {"molecular_target": "FLAG-tagged PDE2A1 (amino acids 2-941) (Homo sapiens (Human), UniProt O00408)", "assay": "IMAP TR-FRET PDE2A phosphodiesterase enzymatic assay", "details": "IMAP TR-FRET, 200 nM FAM-cAMP substrate, 11-point half-log dose-response", "values": [{"molecule": "Cc1cc([C@@H]2CCCN(Cc3cc(F)c(Cl)c(F)c3)C2)n2ncnc2n1", "note": "[Example 184, (3R)-1-[(4-Chloro-3,5-difluorophenyl)methyl]-3-{5-methyl-[1,2,4]triazolo[1,5-a]pyrimidin-7-yl}piperidine]", "PDE2 (pIC50)": ">7"}, {"molecule": "Cc1cc([C@H]2CCCN(Cc3cc(F)c(C(F)(F)F)c(F)c3)C2)n2ncnc2n1", "note": "[Example 190, (3S)-1-{[3,5-Difluoro-4-(trifluoromethyl)phenyl]methyl}-3-{5-methyl-[1,2,4]triazolo[1,5-a]pyrimidin-7-yl}piperidine]", "PDE2 (pIC50)": ">7"}, {"molecule": "Cc1cc(C2CCCN(Cc3cnc(-c4ccc(F)cc4)s3)C2)n2ncnc2n1", "note": "(stereo not drawn) [Example 195, 1-{[2-(4-Fluorophenyl)-1,3-thiazol-5-yl]methyl}-3-{5-methyl-[1,2,4]triazolo[1,5-a]pyrimidin-7-yl}piperidine]", "PDE2 (pIC50)": ">7"}, {"molecule": "Cc1cc(C2CCCN(Cc3cnc(-c4cccc(F)c4)s3)C2)n2ncnc2n1", "note": "(stereo not drawn) [Example 196, 1-{[2-(3-Fluorophenyl)-1,3-thiazol-5-yl]methyl}-3-{5-methyl-[1,2,4]triazolo[1,5-a]pyrimidin-7-yl}piperidine]", "PDE2 (pIC50)": ">7"}, {"molecule": "COc1cccc(-c2ncc(CN3CCCC(c4cc(C)nc5ncnn45)C3)s2)c1", "note": "(stereo not drawn) [Example 197, 1-{[2-(3-Methoxyphenyl)-1,3-thiazol-5-yl]methyl}-3-{5-methyl-[1,2,4]triazolo[1,5-a]pyrimidin-7-yl}piperidine]", "PDE2 (pIC50)": ">7"}]}]}
